Source: ChEMBL document CHEMBL3352357, “Synthesis and pharmacological evaluation of 5-pyrrolidinylquinoxalines as a novel class of peripherally restricted κ-opioid receptor agonists” (J Med Chem, 2014)
Several values for one entry are separate records, joined by “and”; a condition that tells them apart may be missing. Identical values can stand only once.

Amino acid sequences for entries named in this document (tags omitted). A change or cut given only in a name is not applied to a line headed by its entry.
UniProt P41144: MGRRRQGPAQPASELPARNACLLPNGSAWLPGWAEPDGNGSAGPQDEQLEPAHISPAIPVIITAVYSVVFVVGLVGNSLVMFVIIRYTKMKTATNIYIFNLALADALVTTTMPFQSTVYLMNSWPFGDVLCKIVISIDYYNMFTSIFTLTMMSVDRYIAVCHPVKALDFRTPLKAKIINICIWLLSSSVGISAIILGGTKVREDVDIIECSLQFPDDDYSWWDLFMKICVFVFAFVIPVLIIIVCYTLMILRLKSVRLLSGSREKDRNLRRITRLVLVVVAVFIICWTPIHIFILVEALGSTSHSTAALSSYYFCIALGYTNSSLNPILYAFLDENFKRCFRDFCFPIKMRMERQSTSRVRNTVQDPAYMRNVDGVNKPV
UniProt P35372, whole entry, looked up: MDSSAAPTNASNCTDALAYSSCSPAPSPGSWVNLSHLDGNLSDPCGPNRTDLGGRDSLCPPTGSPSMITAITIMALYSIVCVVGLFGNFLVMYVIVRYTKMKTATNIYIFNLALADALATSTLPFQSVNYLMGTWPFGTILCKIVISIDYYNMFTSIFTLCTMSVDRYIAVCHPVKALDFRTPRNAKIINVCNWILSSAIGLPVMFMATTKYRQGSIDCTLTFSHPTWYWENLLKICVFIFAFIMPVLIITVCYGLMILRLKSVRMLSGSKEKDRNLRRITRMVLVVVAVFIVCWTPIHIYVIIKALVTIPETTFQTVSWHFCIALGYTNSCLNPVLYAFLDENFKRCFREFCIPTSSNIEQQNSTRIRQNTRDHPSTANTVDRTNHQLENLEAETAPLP
UniProt Q60492, whole entry, looked up: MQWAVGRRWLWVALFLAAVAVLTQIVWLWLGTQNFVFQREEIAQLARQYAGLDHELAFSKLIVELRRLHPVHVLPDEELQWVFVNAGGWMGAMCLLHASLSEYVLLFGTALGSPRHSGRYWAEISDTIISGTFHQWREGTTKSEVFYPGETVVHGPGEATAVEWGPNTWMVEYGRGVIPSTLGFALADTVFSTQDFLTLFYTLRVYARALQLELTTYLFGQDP

What was measured:
[1] = target: Kappa-type opioid receptor (Cavia porcellus, UniProt P41144); test: Displacement of [3H]U-69593 from kappa opioid receptor in guinea pig brain membranes after 2 hrs by scintillation counting analysis; type: cell membranes, Membrane
[2] = target: Mu-type opioid receptor (Homo sapiens, UniProt P35372); conditions: cho-k1
[3] = target: Sigma non-opioid intracellular receptor 1 (Cavia porcellus, UniProt Q60492); test: Displacement of [3H]-(+)-pentazocine from sigma-1 receptor in guinea pig brain cortex membranes; type: cell membranes; conditions: Cerebral cortex

SMILES | Ki [1] | Ki [2] | Ki [3]
O=C(O)CCC(=O)N1CCN(C(=O)Cc2ccc(Cl)c(Cl)c2)C2C(N3CCCC3)CCCC21 (stereo unspecified) | 136 nM | – | –
O=C(Cc1ccc(Cl)c(Cl)c1)N1CCN(Cc2cnc[nH]2)C2CCCC(N3CCCC3)C21 (stereo unspecified) | 4.3 nM | – | –
CN1CCN(C(=O)Cc2ccc(Cl)c(Cl)c2)C2C1CCCC2N1CCCC1 (stereo unspecified) | 2.7 nM | 5100 nM | –
O=C(O)CC(=O)N1CCN(C(=O)Cc2ccc(Cl)c(Cl)c2)C2C(N3CCCC3)CCCC21 (stereo unspecified) | 169 nM | – | –
CCOC(=O)N1CCN(C(=O)Cc2ccc(Cl)c(Cl)c2)C2C(N3CCCC3)CCCC21 (stereo unspecified) | 15 nM | – | –
CCC(=O)N1CCN(C(=O)Cc2ccc(Cl)c(Cl)c2)C2C(N3CCCC3)CCCC21 (stereo unspecified) | 26 nM | – | –
O=C(Cc1ccc(Cl)c(Cl)c1)N1CCNC2CCCC(N3CCCC3)C21 (racemic) | 2.1 nM | 2800 nM | –
CC(=O)N1CCN(C(=O)Cc2ccc(Cl)c(Cl)c2)C2C(N3CCCC3)CCCC21 (stereo unspecified) | 24 nM | 2800 nM | –
O=C(Cc1ccc(Cl)c(Cl)c1)N1CCNC2CCCC(N3CCC(O)C3)C21 (stereo unspecified) | 8.7 nM and 2.8 nM and 16 nM | 4900 nM | –
CN1CCN(C(=O)Cc2ccc(Cl)c(Cl)c2)C2C1CCCC2N1CCC(O)C1 (stereo unspecified) | 5.4 nM | 6000 nM | 818 nM
